Experimental findings from PMC10820479, “An Improved In Vitro Blood-Brain Barrier Model for the Evaluation of Drug Permeability Using Transwell with Shear Stress” (Pharmaceutics, 2023) are described below.

For this data set, the system named is in vitro AS BBB model (hCMEC/D3 co-cultured with U87MG).

For the substance “fluorescein isothiocyanate (FITC)–dextran [FITC-dextran 40 kDa]”, the Papp is 0.23 ± 0.062 ×10^−6 cm/s.
